In patent publication US20180140703A1, “TUMOR RADIOSENSITIZATION WITH ANTIBODY CONJUGATES” (The Regents of the University California, priority 2016, published 2018):

Tests used:
OE19 cells = test: Alamar Blue cell viability assay; format: cell-based, human; conditions: HER2+ OE19 cells; dose range, up to 96 h
[1] = T-DM1 0.25 nmol combined with IR

ado-trastuzumab emtansine [T-DM1]
cytotoxic potency (comparison) (OE19 cells): more potent cytotoxic drug
mouse weight [1]: mice maintained their weight
